These results are taken from ChEMBL document CHEMBL4507296, “Data for DCP probe PF-05105679” (2021).

Amino acid sequences for entries named in this document (tags omitted).
Phosphatidylinositol 4,5-bisphosphate 3-kinase catalytic subunit alpha isoform (Homo sapiens), P42336, UniProt P42336, whole entry Q546K: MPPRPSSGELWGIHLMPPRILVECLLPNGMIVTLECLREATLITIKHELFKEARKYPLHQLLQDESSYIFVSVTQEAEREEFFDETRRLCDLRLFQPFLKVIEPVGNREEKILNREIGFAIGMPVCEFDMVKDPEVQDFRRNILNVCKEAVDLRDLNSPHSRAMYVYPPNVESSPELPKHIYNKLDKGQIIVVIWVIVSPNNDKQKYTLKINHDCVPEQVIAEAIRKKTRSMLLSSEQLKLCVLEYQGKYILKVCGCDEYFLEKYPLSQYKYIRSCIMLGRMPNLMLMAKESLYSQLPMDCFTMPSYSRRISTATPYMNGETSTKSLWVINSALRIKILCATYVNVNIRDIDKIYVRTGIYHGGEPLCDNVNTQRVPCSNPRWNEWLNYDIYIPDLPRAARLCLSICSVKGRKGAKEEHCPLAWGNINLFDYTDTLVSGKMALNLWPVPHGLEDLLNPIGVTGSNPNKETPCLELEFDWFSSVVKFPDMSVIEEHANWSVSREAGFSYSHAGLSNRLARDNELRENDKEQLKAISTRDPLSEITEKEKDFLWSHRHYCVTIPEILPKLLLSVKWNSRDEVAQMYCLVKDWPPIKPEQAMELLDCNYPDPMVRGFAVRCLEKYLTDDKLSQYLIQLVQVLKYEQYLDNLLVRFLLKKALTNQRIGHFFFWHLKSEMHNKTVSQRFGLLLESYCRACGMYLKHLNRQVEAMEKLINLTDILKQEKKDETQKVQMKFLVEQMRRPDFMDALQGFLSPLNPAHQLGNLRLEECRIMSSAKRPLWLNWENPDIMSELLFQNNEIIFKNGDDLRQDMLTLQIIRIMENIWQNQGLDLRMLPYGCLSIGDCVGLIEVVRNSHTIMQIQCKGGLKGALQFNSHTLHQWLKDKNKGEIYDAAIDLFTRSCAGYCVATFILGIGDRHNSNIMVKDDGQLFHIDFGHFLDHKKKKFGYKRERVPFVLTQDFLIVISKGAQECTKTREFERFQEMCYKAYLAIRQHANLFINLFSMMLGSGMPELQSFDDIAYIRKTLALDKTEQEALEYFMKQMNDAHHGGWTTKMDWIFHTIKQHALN

The target in assay [1] is T1, Serine/threonine-protein kinase TAO3 (Homo sapiens) (UniProt Q9H2K8).
T1 sequence (whole entry): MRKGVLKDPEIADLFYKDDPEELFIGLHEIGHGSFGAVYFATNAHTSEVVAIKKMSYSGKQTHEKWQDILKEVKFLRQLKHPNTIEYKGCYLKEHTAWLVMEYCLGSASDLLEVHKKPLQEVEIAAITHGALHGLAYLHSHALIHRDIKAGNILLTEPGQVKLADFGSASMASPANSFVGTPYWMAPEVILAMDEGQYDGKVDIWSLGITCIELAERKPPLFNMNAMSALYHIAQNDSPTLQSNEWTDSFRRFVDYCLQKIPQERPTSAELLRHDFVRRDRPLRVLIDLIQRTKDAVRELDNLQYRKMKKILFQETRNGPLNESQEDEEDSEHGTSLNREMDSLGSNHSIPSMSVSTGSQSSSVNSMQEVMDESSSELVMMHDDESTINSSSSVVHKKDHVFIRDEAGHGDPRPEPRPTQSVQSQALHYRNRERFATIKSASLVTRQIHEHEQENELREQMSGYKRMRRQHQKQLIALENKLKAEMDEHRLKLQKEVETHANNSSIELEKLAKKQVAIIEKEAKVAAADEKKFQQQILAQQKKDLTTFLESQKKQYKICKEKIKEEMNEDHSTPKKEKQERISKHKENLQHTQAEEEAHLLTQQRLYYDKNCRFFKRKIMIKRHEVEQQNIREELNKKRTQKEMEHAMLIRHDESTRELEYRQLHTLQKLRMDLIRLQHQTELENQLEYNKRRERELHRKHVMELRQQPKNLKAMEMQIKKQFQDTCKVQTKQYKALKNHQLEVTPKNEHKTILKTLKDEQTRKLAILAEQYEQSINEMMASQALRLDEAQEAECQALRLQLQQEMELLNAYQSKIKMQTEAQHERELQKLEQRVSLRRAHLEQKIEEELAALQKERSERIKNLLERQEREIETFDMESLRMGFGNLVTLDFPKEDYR
The conditions noted are these: Compound concentration 1000.0 nM.

Assay [2] concerns Phosphatidylinositol 4,5-bisphosphate 3-kinase catalytic subunit alpha isoform (Homo sapiens), P42336 [Q546K]. The following applies: Compound concentration 1000.0 nM.

By residual activity is commonly meant the activity still measured, relative to the control.

For the compound `C[C@H](c1ccc(F)cc1)N(Cc1cccc(C(=O)O)c1)C(=O)c1cnc2ccccc2c1` [PF-05105679], the values for the residual activity in assay [1] and in assay [2] were 41% and 42%, respectively.
